Paper PMC11969009 (Nature Communications, 2025)

Test system: 47 human DUBs
Test: DUBprofiler specificity assay (Ubiquigent)
Settings: 50 µM concentration

## CO/N=C(/c1ccc2cc(OC)ccc2c1)C1CCCN(C2CCC(O)CC2)C1 (stereo not shown)
  inhibitory activity against 47 human DUBs: did not show any inhibitory activity
